Test results: patent publication US10385145B1, “Liquid photo initiating compound and uses of the same” (CHITEC TECHNOLOGY CO., LTD., priority 2018, dated 2019)

Assay: Solubility test: dissolution in acrylate mixtures I to III
Format: physicochemical
Settings: one-hour ultrasonication at room temperature
Protocol: Mixtures I to III were prepared according to the composition provided below, and then 6 parts by weight of photoinitiator Trgacure® 369 (available from IGM), photoinitiator R-gen® 919 (available from Chitec Technology Co., Ltd.) or photo initiating compound Ia was added to each of the mixtures I to III. The obtained mixtures were ultrasonicated for 1 hour at room temperature, and the dissolution of each of Irgacure® 369, R-gen® 919 and photo initiating compound Ia was observed and described in the following Table 1.

## CCC(Cc1ccccc1)(C(=O)c1ccc(N2CCOCC2)cc1)N(C)C (stereo not drawn) [Irgacure® 369]
6 parts by weight photoinitiator in Mixture I
  Dissolution, Mixture I: Completely
6 parts by weight photoinitiator in Mixture II
  Dissolution, Mixture II: Only a small part
6 parts by weight photoinitiator in Mixture III
  Dissolution, Mixture III: Only a small part
